IC50 data for one molecule are collected here from PMC9860845, “Synthesis, DFT Studies, Molecular Docking and Biological Activity Evaluation of Thiazole-Sulfonamide Derivatives as Potent Alzheimer’s Inhibitors” (Molecules, 2023).

Assay [1] addresses acetylcholinesterase (AChE) (Homo sapiens, UniProt P22303). Description: In vitro acetylcholinesterase inhibitory activity (Ellman method). Type of assay: biochemical. The following applies: read-out: AchE IC50, pH 7.7, 37 °C, triplicate, ± SEM. (In general: Ellman's reagent forms a yellow product with free thiols.)
For assay [2], the target named is butyrylcholinesterase (BuChE) (Homo sapiens, UniProt P06276). Description: In vitro butyrylcholinesterase inhibitory activity (Ellman method). The following applies: read-out: BuChE IC50, pH 7.7, 37 °C, triplicate, ± SEM. Type of assay: biochemical.

Usually IC50 stands for the point on the concentration scale where inhibition reaches its midpoint. For `O=[N+]([O-])c1cccc(-c2csc(NNS(=O)(=O)c3cc([N+](=O)[O-])ccc3[N+](=O)[O-])n2)c1`, the values for the IC50 in assay [1] and in assay [2] were 800 nM and 1200 nM, respectively.
